# Only a part is listed here, and it is no random draw. Active and inactive are the calls of the source.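 Rule for the calls: active = fluorescence response below the plate's average for near-maximal glutamate wells, less 3 SD of those wells; inactive = the rest.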
# Biological target: Metabotropic glutamate receptor 4 (Homo sapiens) (UniProt Q14833)
# Experiment: human mGluR4 response to M1 antagonist hits, M1 allosteric modulator project, cell-based, antagonist mode, secondary assay 1 (AID 678);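 note: raw unnormalized fluorescence span taken in the window right after glutamate addition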
# Conditions: CHO-mGluR4 calcium flux, Fluo-4 fluorescence, glutamate EC80; at 10 µM; hits give low values
row,Compound,fluorescence response (max-min)
1,O=C(OC1CN2CCC1CC2)c1cccc(Cl)c1 (centres undefined),inactive: 215
2,Cc1ccc(OCC(=O)OC2CN3CCC2CC3)cc1 (centres undefined),inactive: 260
3,O=C(OC1CN2CCC1CC2)C12CC3CC(CC(C3)C1)C2 (centres undefined),inactive: 187
4,O=C(COc1ccccc1)OC1CN2CCC1CC2 (centres undefined),inactive: 217

# Reference: PubChem BioAssay AID678 (Vanderbilt High Throughput Screening Facility, 2007)
